AlphaSeq binding of Ab-14 heavy chain variants to a spike HR2 peptide

Target peptide (SARS-CoV-2 spike, HR2 region): PDVDLGDISGINAS

Parent: Ab-14, a human scFv built as VH, the linker GGGGSGGGGSGGGGS, VL. Only the CDRs of the heavy chain vary.
VH: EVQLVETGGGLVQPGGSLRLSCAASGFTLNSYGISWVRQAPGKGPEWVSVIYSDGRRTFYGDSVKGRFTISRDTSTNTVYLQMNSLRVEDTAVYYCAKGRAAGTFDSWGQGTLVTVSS
VL: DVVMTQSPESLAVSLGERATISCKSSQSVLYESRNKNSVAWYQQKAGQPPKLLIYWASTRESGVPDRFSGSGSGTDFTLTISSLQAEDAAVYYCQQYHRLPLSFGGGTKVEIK

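The starting antibody came from a phage panning campaign against this peptide. This is the validation round: designs drawn from the data on random variants, tested in the same kind of assay. Their group label is 14H_En_Gibbs (En: ensemble of fine-tuned language models; Gibbs: Gibbs sampling). AlphaSeq pools MATa yeast showing the antibodies with MATalpha yeast showing the peptide. Binding brings cells together so that they mate, and sequencing counts the barcode pairs among the diploids. Scores were corrected for input abundance and mapped to Kd with protein pairs of known affinity run in the same pool. The assay was run in six technical replicates.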

The parent's heavy chain CDRs are GFTLNSYGIS, VIYSDGRRTFYGDSVK, GRAAGTFDS; each variant's own CDRs replace them letter for letter. The read-out is the apparent dissociation constant on a log10 scale (nM): the lower, the stronger. An entry "n.d." has no value in the source: the pair was not observed among the diploids in that replicate. This suggests poor binding but is not conclusive. The parent sequence was in this pool as ten entries: three were never detected, three once, and four in most replicates, with averages from 0.34 to 2.37. The range of this assay differs from that of the first round, and the authors advise against merging the two. Three control strains display no target. For all heavy chain designs, 1% of the pairings with them gave a signal, with a median of 2.08 and one signal in twenty below 0.84, so weak values seen in few replicates may be background. The control count says in how many pairings with the empty strains this scFv gave a signal, with their mean in brackets. The authors averaged sequences with at least three values out of six and counted those with two or fewer as poor binders.

CDR-H1,CDR-H2,CDR-H3,log10 Kd (nM) by replicate,control signals
GFELTEYGIS,VIYADGHRSFVTDTVK,GQNAGAFNV,n.d. / n.d. / n.d. / n.d. / n.d. / n.d.,0/18
GFDLKQYGIS,VIYADGMRAGYADNVK,GEWGGKFLV,n.d. / n.d. / n.d. / n.d. / n.d. / n.d.,0/18
GFNLDEYGIS,VIYADGMRRAYSDEVK,GGFSDILLM,n.d. / n.d. / n.d. / n.d. / n.d. / n.d.,0/18
GFDLGEYGIS,VIYADGQRKSYADSVK,GQSSVYMTA,n.d. / n.d. / n.d. / n.d. / n.d. / n.d.,1/18 (3.34)
GFDLQEYGIS,VIYADGQRANYVSQVK,GEQAGGFVL,n.d. / n.d. / n.d. / n.d. / n.d. / n.d.,0/18
GFDLDKYGIS,VIYADGRRKAYQTQFK,GGMTGTFDI,n.d. / n.d. / n.d. / n.d. / 2.94 / n.d.,0/18
GQSLDDYGIS,VIYADGKRKAYVDEVK,GYVAGTFDI,n.d. / n.d. / 0.89 / 2.53 / n.d. / 2.39,0/18
GFNLDEYGIS,VIYADGKREAYANKVK,GEQGSFFIT,n.d. / n.d. / n.d. / n.d. / 2.03 / n.d.,0/18
GFDIDEYGVS,VIYADGFREAYAESVK,GLIQFGFTV,n.d. / n.d. / n.d. / n.d. / 1.54 / n.d.,0/18
GEVLDEYGIS,VIYADGQRVQYSDNVK,GLLSGAFDM,n.d. / n.d. / n.d. / n.d. / n.d. / n.d.,0/18
GFQLNEYGIS,VIYADGLRTGYAQNVK,GYHSFGLNQ,n.d. / n.d. / n.d. / n.d. / n.d. / n.d.,1/18 (0.73)
GFELSEYGIS,VIYADGHRSFVTDSVK,GQNAGAFNV,0.99 / 0.78 / 0.56 / 0.69 / 0.67 / 1.05,1/18 (2.27)
GNDIDEYGIS,VIYADGRRTMYDEAVK,GEIAGSFFH,n.d. / n.d. / n.d. / n.d. / n.d. / n.d.,0/18
EFDLNEYGIS,VIYADGKRTFYAEHVK,GTNAGVFDT,3.14 / 1.59 / 1.54 / 0.44 / 1.37 / 1.66,0/18
GFNLNEFGIS,VIYADGKRQAYVPNVK,GHLGGHFDM,n.d. / n.d. / n.d. / n.d. / n.d. / n.d.,1/18 (0.92)
GKSLEDYGIS,VIYADGQRTSYAETVK,GNNGGVFIY,n.d. / n.d. / n.d. / n.d. / n.d. / n.d.,0/18
SFNLEEYGIS,VIYADGKRSVYADSVK,GHTSGWFAM,n.d. / n.d. / n.d. / n.d. / n.d. / n.d.,0/18
GFNLDEYGIS,VIYADGQRTRYANDVK,GGYGGIMLS,n.d. / n.d. / n.d. / n.d. / n.d. / n.d.,0/18
GFQIDEYGIS,VIYADGDRMSYDNAVK,GQISGHFDM,n.d. / n.d. / n.d. / n.d. / n.d. / n.d.,0/18
GFDLDQYGIS,VIYADGKRVAYTADVK,GVQGGMAIV,3.45 / n.d. / n.d. / n.d. / n.d. / n.d.,0/18
GFDLQEYGIS,VIYADGVRMAYTESVK,GNSGGRDML,n.d. / n.d. / n.d. / n.d. / n.d. / 2.91,1/18 (1.91)
GFDLNEYGIS,VIYADGKRTAYLQNVK,GVNAGFDQY,n.d. / n.d. / n.d. / n.d. / n.d. / n.d.,0/18
GFNLEEVGIS,VIYADGLRSAYVDAVK,GGVGDVDFV,n.d. / n.d. / n.d. / n.d. / n.d. / n.d.,0/18
GKDLEEYGIS,VIYADGRRSDYTDNVK,GHNGNIFMM,n.d. / n.d. / n.d. / n.d. / n.d. / n.d.,0/18
GYSLQDYGIS,VIYADGKRKSYAEDVK,GNSAGSFMD,n.d. / n.d. / n.d. / n.d. / n.d. / n.d.,1/18 (1.11)
GFDLDEYGIS,VIYADGKRTRYSNNVK,GGVGGIGLS,1.57 / n.d. / n.d. / n.d. / n.d. / n.d.,0/18
GFDIEEFGIS,VIYADGRQTAYAQKVK,GTIAGTFVD,n.d. / 0.38 / 0.80 / 1.28 / 1.06 / 0.76,1/18 (2.12)
GDSLDEYGIS,VIYADGQRKAYSDNVK,GVGQAVLFD,n.d. / n.d. / n.d. / n.d. / n.d. / n.d.,0/18
GFGLDEYGIS,VIYADGFRAYYHDNVK,GVNSDVDIL,n.d. / n.d. / n.d. / n.d. / n.d. / n.d.,0/18
GMDLEAYGIS,VIYADGVRTGYVNKVK,GDTGGMFDD,n.d. / n.d. / n.d. / n.d. / n.d. / n.d.,0/18
GDDIDEYGIS,VIYADGHRKQYSEQVK,GYNAGTLDE,n.d. / n.d. / n.d. / n.d. / n.d. / n.d.,0/18
GFNLSEYGIS,VIYADGMRSNYADSVK,GHKGNFFID,n.d. / n.d. / n.d. / n.d. / n.d. / n.d.,1/18 (1.96)
GVNLDEYGIS,VIYADGVRSHYADSVK,GMHGDFGVV,n.d. / n.d. / n.d. / n.d. / n.d. / n.d.,0/18
GFQLDEQGIS,VIYADGVRCSYAQKVK,GANSGVIDV,n.d. / n.d. / n.d. / n.d. / n.d. / n.d.,0/18
GEDLMEYGIS,VIYADGIRFSYIDDVK,GNSTGFLDV,n.d. / n.d. / n.d. / n.d. / n.d. / n.d.,0/18
GFNLDECGIS,VIYADGRRQMYAVSVK,GEIGGTFLM,n.d. / n.d. / n.d. / n.d. / n.d. / n.d.,0/18

5 of these entries, quoted again:

{"CDR-H1": "GKDLEEYGIS", "CDR-H2": "VIYADGRRSDYTDNVK", "CDR-H3": "GHNGNIFMM", "log10 Kd (nM) by replicate": "n.d. / n.d. / n.d. / n.d. / n.d. / n.d.", "control signals": "0/18"}
{"CDR-H1": "GFDLQEYGIS", "CDR-H2": "VIYADGQRANYVSQVK", "CDR-H3": "GEQAGGFVL", "log10 Kd (nM) by replicate": "n.d. / n.d. / n.d. / n.d. / n.d. / n.d.", "control signals": "0/18"}
{"CDR-H1": "GEDLMEYGIS", "CDR-H2": "VIYADGIRFSYIDDVK", "CDR-H3": "GNSTGFLDV", "log10 Kd (nM) by replicate": "n.d. / n.d. / n.d. / n.d. / n.d. / n.d.", "control signals": "0/18"}
{"CDR-H1": "SFNLEEYGIS", "CDR-H2": "VIYADGKRSVYADSVK", "CDR-H3": "GHTSGWFAM", "log10 Kd (nM) by replicate": "n.d. / n.d. / n.d. / n.d. / n.d. / n.d.", "control signals": "0/18"}
{"CDR-H1": "GFNLDEYGIS", "CDR-H2": "VIYADGMRRAYSDEVK", "CDR-H3": "GGFSDILLM", "log10 Kd (nM) by replicate": "n.d. / n.d. / n.d. / n.d. / n.d. / n.d.", "control signals": "0/18"}

The measurements come from Li et al. 2023 (doi:10.1038/s41467-023-39022-2) through the FLAb antibody collection.